scFv variants of Ab-14 (light chain) against a SARS-CoV-2 spike peptide

The target is the same throughout: PDVDLGDISGINAS, from the HR2 region of SARS-CoV-2 spike.

Parent: Ab-14, a human scFv built as VH, the linker GGGGSGGGGSGGGGS, VL. Only the CDRs of the light chain vary.
VH: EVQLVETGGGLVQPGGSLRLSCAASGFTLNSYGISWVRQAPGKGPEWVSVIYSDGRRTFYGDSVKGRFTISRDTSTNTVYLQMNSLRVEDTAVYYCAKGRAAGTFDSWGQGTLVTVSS
VL: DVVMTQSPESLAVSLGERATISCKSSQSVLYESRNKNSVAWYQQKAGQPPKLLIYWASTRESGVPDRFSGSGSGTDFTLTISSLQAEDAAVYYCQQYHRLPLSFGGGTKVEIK

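Variants in AAYL50 differ from the parent at up to three CDR positions; double and triple changes were sampled at random. In AlphaSeq, yeast of one mating type display the scFv and yeast of the other type display the target. Pairs that bind mate more often; barcode pairs of the diploids are counted by sequencing. The ratio of observed to expected reads was calibrated, replicate by replicate, on BCL2-family standards whose Kd was known from biolayer interferometry. Mating was done three times.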

Substitutions are numbered in sequence along the VL above, starting at 1 (not Kabat). Scale: log10 of Kd in nM, estimated from mating counts; low values are strong binders. Where no diploid with the target was found in that replicate, the entry reads "nd": below detection, most likely a poor binder, though not proof of it. Three control strains display no target. For library AAYL50, 18% of the pairings with them gave a signal, with a median of 4.19 and one signal in twenty below 2.99, so weak values seen in few replicates may be background. The control count says in how many pairings with the empty strains this scFv gave a signal, with their mean in brackets.

{"changes": "V29D+K36G+Y97Q", "replicates, log10 nM": "nd / nd / nd", "control signals": "2 of 9 (3.90)"}
{"changes": "S28K+A40Q+S103E", "replicates, log10 nM": "nd / nd / nd", "control signals": "0 of 9"}
{"changes": "V29L+Y31I+T59D", "replicates, log10 nM": "0.75 / 0.72 / 0.92", "control signals": "0 of 9"}
{"changes": "K24A+E32G", "replicates, log10 nM": "1.37 / 1.36 / 1.33", "control signals": "1 of 9 (5.82)"}
{"changes": "K24I+E32Q+S103D", "replicates, log10 nM": "3.10 / 2.28 / 3.30", "control signals": "2 of 9 (4.78)"}
{"changes": "S26V+V29E+Q95E", "replicates, log10 nM": "2.43 / 2.27 / 2.43", "control signals": "3 of 9 (4.36)"}
{"changes": "N35H+W56E+A57L", "replicates, log10 nM": "0.22 / 0.45 / 0.29", "control signals": "2 of 9 (4.51)"}
{"changes": "Q27L+E61K+L100R", "replicates, log10 nM": "nd / nd / nd", "control signals": "1 of 9 (3.23)"}
{"changes": "S25H+Y31N+S103F", "replicates, log10 nM": "0.56 / 0.82 / 0.56", "control signals": "3 of 9 (4.85)"}
{"changes": "V29R+E32R+N35G", "replicates, log10 nM": "nd / 2.24 / 3.05", "control signals": "0 of 9"}
{"changes": "S26K+E32P+S62T", "replicates, log10 nM": "2.77 / 2.34 / 3.28", "control signals": "0 of 9"}
{"changes": "Q27C+Q96C+L100R", "replicates, log10 nM": "6.36 / nd / 5.27", "control signals": "5 of 9 (3.98)"}
{"changes": "W56R+S62E+P101F", "replicates, log10 nM": "nd / nd / nd", "control signals": "0 of 9"}
{"changes": "S25H+R34T+R60N", "replicates, log10 nM": "nd / nd / 5.54", "control signals": "2 of 9 (3.40)"}
{"changes": "N37G+E61N+L102M", "replicates, log10 nM": "3.46 / 2.30 / nd", "control signals": "0 of 9"}
{"changes": "L30E+R34S+L100T", "replicates, log10 nM": "0.03 / 0.51 / 0.10", "control signals": "2 of 9 (4.98)"}
{"changes": "V29N+T59Y+R60W", "replicates, log10 nM": "nd / nd / 2.98", "control signals": "0 of 9"}
{"changes": "E32F+H98A+L100C", "replicates, log10 nM": "3.40 / nd / nd", "control signals": "0 of 9"}
{"changes": "K24L+L30E+Q95G", "replicates, log10 nM": "0.96 / 1.09 / 0.91", "control signals": "2 of 9 (3.84)"}
{"changes": "S28D+Q95N+R99N", "replicates, log10 nM": "nd / nd / nd", "control signals": "0 of 9"}
{"changes": "L30T+E61Y+S103L", "replicates, log10 nM": "0.87 / 1.05 / 0.91", "control signals": "2 of 9 (4.34)"}
{"changes": "L30C+Q96W+P101S", "replicates, log10 nM": "2.38 / 2.56 / 3.06", "control signals": "1 of 9 (3.90)"}
{"changes": "H98W+L100W", "replicates, log10 nM": "nd / nd / nd", "control signals": "2 of 9 (3.28)"}
{"changes": "K36V+S103R", "replicates, log10 nM": "0.62 / 0.85 / 0.94", "control signals": "2 of 9 (3.99)"}
{"changes": "V29A+E32F+L102V", "replicates, log10 nM": "3.79 / 3.57 / 2.81", "control signals": "0 of 9"}
{"changes": "Y31S+T59C+Q96D", "replicates, log10 nM": "1.81 / nd / nd", "control signals": "0 of 9"}
{"changes": "S25H+Q27P", "replicates, log10 nM": "0.32 / 0.59 / 0.30", "control signals": "2 of 9 (3.67)"}
{"changes": "S25H+V39Q+S62G", "replicates, log10 nM": "nd / 4.92 / nd", "control signals": "1 of 9 (5.03)"}
{"changes": "L30V+W56R+L100F", "replicates, log10 nM": "2.35 / 1.99 / 2.36", "control signals": "4 of 9 (3.83)"}
{"changes": "V39H", "replicates, log10 nM": "nd / nd / nd", "control signals": "0 of 9"}

Top 4 of the variants detected in all replicates, tightest first:

{"changes": "L30E+R34S+L100T", "replicates, log10 nM": "0.03 / 0.51 / 0.10", "control signals": "2 of 9 (4.98)"}
{"changes": "N35H+W56E+A57L", "replicates, log10 nM": "0.22 / 0.45 / 0.29", "control signals": "2 of 9 (4.51)"}
{"changes": "S25H+Q27P", "replicates, log10 nM": "0.32 / 0.59 / 0.30", "control signals": "2 of 9 (3.67)"}
{"changes": "S25H+Y31N+S103F", "replicates, log10 nM": "0.56 / 0.82 / 0.56", "control signals": "3 of 9 (4.85)"}

Reference: Engelhart et al. 2022, doi:10.1038/s41597-022-01779-4. File: FLAb, binding data.